Here are results for 80 compounds from PubChem BioAssay AID1049 (The Scripps Research Institute Molecular Screening Center, 2008).

The list shows a part of the results, in another mix than the full data. Active and inactive are the calls of the source. Cut-off read from the data, not from the text of the source: active = TR-FRET ratio above about 2000; inactive = the rest.

A short description of this test: detection-format interference in TR-FRET ratio – biochemical, artefact control for PPARgamma SRC-2 agonist project, primary screen (AID 1049). Particulars: TR-FRET artefact counter-screen; at 8 µM; hits give high values.
`Clc1n[nH]nc1-c1nn[nH][15n]1`: the TR-FRET ratio was inactive: 1580.
Under `O=P1(Nc2ccccn2)COc2ccccc2OC1` stands inactive: 1700; under `CC1(CBr)Cn2c(nc3ccccc3c2=O)S1` (stereo not given), inactive: 1460; under `CC(C)/C=N\N=C(\N)N[N+](=O)[O-]`, inactive: 1390.
`CN(C(=O)Cc1ccc(Cl)c(Cl)c1)[C@@H]1CCCC[C@H]1N1CCCC1`: the TR-FRET ratio is inactive: 1430.
Take `CN(C)C1(CNC(=O)c2ccc(S(C)(=O)=O)cc2)CCCCC1`: the TR-FRET ratio was inactive: 1500.
As to `Cc1nn(-c2ccccc2)c2c1P(=O)(N1CCOCC1)N(C)C(c1ccccc1)=N2` (stereo not given), the TR-FRET ratio was inactive: 1620.
Under `CC1CCC(C(C)C)C(OP(=O)(Nc2ccccn2)c2ccccc2)C1` (stereo not given) stands inactive: 1430; under `O=P1(Nc2ccc(Br)cn2)COc2ccccc2OC1`, inactive: 1380; under `Cc1ccc(OCC(=O)OC2CN3CCC2CC3)cc1` (stereo not given), inactive: 1660.
The value for `O=P1(Nc2ncccn2)COc2ccccc2OC1` was inactive: 1500.
Under `CCOP1(=S)c2c(C)nn(CCC#N)c2N=C(c2ccccc2F)N1C` (stereo not given) stands inactive: 1540.
`O=P(Nc1nccs1)(c1ccccc1)c1nc2ccccc2s1` (stereo not given): the TR-FRET ratio was inactive: 1660.
Under `O=P(Nc1nccs1)(Oc1ccccc1)Oc1ccccc1` stands inactive: 1460; under `O=[N+]([O-])c1ccc2c(c1)nnn2O`, inactive: 1510; under `CCOP1(=S)c2c(C)nn(CCC#N)c2N=C(c2ccc(F)cc2)N1C` (stereo not given), inactive: 1360.
With `Cc1cccc(OCC(=O)OC2CN3CCC2CC3)c1` (stereo not given), the TR-FRET ratio was inactive: 1570.
Consider `COc1cc(C(=O)NCC2(N3CCOCC3)CCCCC2)cc(Cl)c1OC(C)C`, for which the TR-FRET ratio is inactive: 1750.
The value for `COc1cc(C2NCCC3(OCCO3)C2(C)C)cc(OC)c1OC` (stereo not given) was inactive: 1720; that for `CCOP(=O)(Nc1cccc2ccccc12)OCC` was inactive: 1670.
The value for `Cc1ccc(NCCc2c([N+](=O)[O-])cc([N+](=O)[O-])cc2[N+](=O)[O-])cc1` was inactive: 1760; that for `COc1ccc2nc(NP(=O)(c3ccccc3)c3ccccc3)sc2c1` was inactive: 1580; that for `O=C(OC1CN2CCC1CC2)C12CC3CC(CC(C3)C1)C2` (stereo not given) was inactive: 1520.
Under `Cc1cc(=O)[nH]c(N[N+](=O)[O-])n1` stands inactive: 1510.
As for `Cc1c2c(nc3ccccc13)SC(C(Cl)Cl)C2` (stereo not given), the TR-FRET ratio is inactive: 1390.
Turning to `COc1ccc(N/C(=N/P(=O)(N2CCOCC2)N2CCOCC2)N2CCOCC2)cc1`, the TR-FRET ratio was inactive: 1520.
Regarding `Cc1ccc2nc3c(c(C)c2c1)CC(C(Cl)Cl)S3` (stereo not given), the TR-FRET ratio was inactive: 1430.
As for `CCN(CC)C(=S)SC(NC=O)C(Cl)(Cl)Cl` (stereo not given), the TR-FRET ratio is inactive: 1520.
In the case of `CC(C)NC(=O)NP(=O)(Oc1ccccc1)Oc1ccccc1`, the TR-FRET ratio is inactive: 1490.
Under `O=[N+]([O-])c1cc([N+](=O)[O-])c(-c2ccn[nH]2)s1` stands inactive: 1710.
For `ClCCSc1nnc(-c2cccnc2)o1`, the TR-FRET ratio was inactive: 1510.
In the case of `Cc1cc(SC(NC(=O)c2ccccc2)C(Cl)(Cl)Cl)nc(C(C)C)n1` (stereo not given), the TR-FRET ratio is inactive: 1690.
As for `O=P(Nc1ccccn1)(c1cccc2ccccc12)c1cccc2ccccc12`, the TR-FRET ratio was inactive: 1340.
As to `Cc1cc(SC(NC=O)C(Cl)(Cl)Cl)ncn1` (stereo not given), the TR-FRET ratio was inactive: 1730.
`O=C(COc1ccccc1)OC1CN2CCC1CC2` (stereo not given): the TR-FRET ratio is inactive: 1410.
Consider `COP1(=S)c2c(C)nn(CCC#N)c2N=C(c2ccc(F)cc2)N1C` (stereo not given), for which the TR-FRET ratio is inactive: 1600.
Turning to `CCC(C)N(CC(C)C)C(=S)SC(NC(C)=O)C(Cl)(Cl)Cl` (stereo not given), the TR-FRET ratio was inactive: 1790.
Turning to `O=[N+]([O-])c1cccc2n[nH]nc12`, the TR-FRET ratio was inactive: 1620.
For `CC(=O)N1C2C3N(C(C)=O)C1C1N(C(C)=O)C(C(N1C(C)=O)N3C(C)=O)N2C(C)=O`, the TR-FRET ratio is inactive: 1590.
Under `Cc1ccc(NP(=O)(Oc2ccccc2)Oc2ccccc2)nc1` stands inactive: 1610.
Turning to `CCc1nc2c(n1)c1c(non1O)c1c2no[n+]1[O-]`, the TR-FRET ratio is inactive: 1550.
Turning to `O=[N+]([O-])c1cc([N+](=O)[O-])c(CCNc2ccccc2)c([N+](=O)[O-])c1`, the TR-FRET ratio was inactive: 1720.
`COc1ccc(C2=NCC(CBr)S2)cc1` (stereo not given): the TR-FRET ratio is inactive: 1270.
The value for `CC(C)=N/N=C(\N)N[N+](=O)[O-]` was inactive: 1240.
`CN(C)C(=O)OCCc1n(C)cc[n+]1C`: the TR-FRET ratio is inactive: 1530.
With `CC1CCN(C(=O)Oc2c(Cl)cc(Cl)c3cccnc23)CC1`, the TR-FRET ratio is inactive: 1560.
As to `CCN(/C(=N/P(=O)(N1CCOCC1)N1CCOCC1)N1CCOCC1)c1ccc(OC)cc1`, the TR-FRET ratio was inactive: 1510.
`O=[N+]([O-])c1ncn(CCn2ncnc2[N+](=O)[O-])n1`: the TR-FRET ratio was inactive: 1730.
With `CCOP(=O)(Nc1ccccc1)OCC`, the TR-FRET ratio is inactive: 1470.
The value for `Cc1cc(SC(NC(=O)c2ccc(F)cc2)C(Cl)(Cl)Cl)ncn1` (stereo not given) was inactive: 1630.
In the case of `CCN(N=Nc1nonc1N)c1nonc1N`, the TR-FRET ratio was inactive: 1600.
The value for `COc1ccccc1OP(=O)(Nc1ccc(C)cn1)Oc1ccccc1OC` was inactive: 1340; that for `Clc1ccc(Cl)c(NC2=NCC(CBr)S2)c1` (stereo not given) was inactive: 1610.
For the compound `CN1CCCC(OC(=O)C(c2ccccc2)c2ccccc2)C1` (stereo not given), the TR-FRET ratio was inactive: 1540.
For the compound `NC(=O)c1cc([N+](=O)[O-])cc([N+](=O)[O-])c1N`, the TR-FRET ratio was inactive: 1440.
Regarding `Cc1ccc(N/C(=N/P(=O)(N2CCOCC2)N2CCOCC2)N2CCOCC2)cc1`, the TR-FRET ratio is inactive: 1650.
`CC(C)CC(=O)NC(Sc1ccc(Cl)cc1)C(Cl)(Cl)Cl` (stereo not given): the TR-FRET ratio was inactive: 1450.
`Oc1ccccc1CNc1ccccn1`: the TR-FRET ratio was inactive: 1560.
As to `Cc1c2non([O-])c-2c(C)[n+](=O)[n+]1[O-]`, the TR-FRET ratio was inactive: 1550.
As to `O=C(NC(Sc1ccncn1)C(Cl)(Cl)Cl)c1ccccc1` (stereo not given), the TR-FRET ratio is inactive: 1670.
Under `CC(C)(C)C(=O)NC(Sc1ccccc1)C(Cl)(Cl)Cl` (stereo not given) stands inactive: 1550; under `O=P1(Nc2nc3ccc(Cl)cc3s2)COc2ccccc2O1` (stereo not given), inactive: 1540; under `CCOc1ccc(C2=NCC(CBr)S2)cc1` (stereo not given), inactive: 1740.
Under `CC(=O)Nc1ccc(Oc2c([N+](=O)[O-])cc([N+](=O)[O-])cc2[N+](=O)[O-])cc1` stands inactive: 1520.
Consider `CCNC(=S)/N=C(\N)N[N+](=O)[O-]`, for which the TR-FRET ratio was inactive: 1610.
As to `O=C(NC1CCS(=O)(=O)C1)NP(=S)(Oc1ccccc1)Oc1ccccc1` (stereo not given), the TR-FRET ratio was inactive: 1500.
In the case of `c1ccc(-c2nn[nH]n2)c(-c2nn[nH]n2)c1`, the TR-FRET ratio was inactive: 1500.
Under `CCOC(=O)NC(Sc1ccccc1)C(Cl)(Cl)Cl` (stereo not given) stands inactive: 1230; under `O=c1c2cc([N+](=O)[O-])ccc2[nH]c2c([N+](=O)[O-])cc([N+](=O)[O-])cc12`, inactive: 1590.
`COC(=O)c1cc2c(s1)N=C(c1ccccc1)N(C)P2(=O)N1CCOCC1` (stereo not given): the TR-FRET ratio was inactive: 1630.
The value for `Cc1ccc(OP(=O)(Nc2ccccn2)Oc2ccc(C)cc2)cc1` was inactive: 1470.
With `CC(=O)NC(SC(=S)N(CC(C)C)CC(C)C)C(Cl)(Cl)Cl` (stereo not given), the TR-FRET ratio was inactive: 1840.
As for `CCC(=O)N1C2C3N(C(=O)CC)C1C1N(C(=O)CC)C(C(N1C(=O)CC)N3C(=O)CC)N2C(=O)CC`, the TR-FRET ratio is inactive: 1520.
The value for `O=P(Nc1ccccn1)(c1ccc(Br)cc1)c1ccc(Br)cc1` was inactive: 1570; that for `C(Cc1nn[nH]n1)Cc1nn[nH]n1` was inactive: 1460.
The value for `O=C(OC1CN2CCC1CC2)c1cccc(Cl)c1` (stereo not given) was inactive: 1440; that for `CC(=O)NC(SC(=S)N(C)C)C(Cl)(Cl)Cl` (stereo not given) was inactive: 1370; that for `c1nnnn1CCn1cnnn1` was inactive: 1580.
On to `CC(C)C(=O)NC(Sc1ccccc1)C(Cl)(Cl)Cl` (stereo not given), for which the TR-FRET ratio is inactive: 1620.
As for `O=P(Nc1nccs1)(c1ccccc1)c1ccccc1`, the TR-FRET ratio is inactive: 1680.
